OPERA 2.9 data: vapor pressure values

From the experimental data distributed with OPERA 2.9.

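These are experimental values that the OPERA curators gathered from public databases to train and test their QSAR models. A listed value is a point estimate from one report or more. Method and conditions are not stated for these values. Where a salt, mixture or single isomer is drawn, the source does not say that exactly this form was tested. Some upstream entries may be estimates or bounds without being marked so.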

Vapor pressures (log10 mmHg) refer to near room temperature, 15 to 30 °C; higher is more volatile.
"n/a" marks a cell with nothing listed here.

SMILES,name,log VP (log10 mmHg)
C1=CCCC=CCCC=CCC1,"1,5,9-Cyclododecatriene",-1.097
CN(C)C1CSSSC1.O=C(O)C(=O)O,Thiocyclam oxalate,-5.388
CCCCCCCCCC[N+](C)(C)CCCCCCCCCC.CCCCCCCCCC[N+](C)(C)CCCCCCCCCC.O=C([O-])CCCCC(=O)[O-],"1-Decanaminium, N-decyl-N,N-dimethyl-, hexanedioate (2:1)",-9.274
O=S(=O)([N-]S(=O)(=O)C(F)(F)F)C(F)(F)F.[Li+],Lithium bis[(trifluoromethyl)sulfonyl]azanide,-7.108
CC(CC(=O)OOC(C)(C)C)CC(C)(C)C (stereo unspecified),n/a,-1.648
c1ccc2sc(SNC3CCCCC3)nc2c1,N-Cyclohexyl-2-benzothiazolesulfenamide,-6.469
Nc1ccc(Cl)cc1[N+](=O)[O-],4-Chloro-2-nitroaniline,-3.314
O=[N+]([O-])c1cc(C(F)(F)F)c(Cl)c([N+](=O)[O-])c1Nc1ncc(C(F)(F)F)cc1Cl,Fluazinam,-4.251
Clc1cc(Cl)c(-c2c(Cl)c(Cl)c(Cl)c(Cl)c2Cl)c(Cl)c1,"2,2',3,4,4',5,6,6'-Octachlorobiphenyl",-5.585
CC(=O)[C@H](O)c1ccccc1,(R)-Phenylacetylcarbinol,-2.929
CC(=NNC(=O)Nc1cc(F)cc(F)c1)c1ncccc1C(=O)O,Diflufenzopyr,-4.886
CCCCC(CC)COC(=O)c1ccc(C(=O)OCC(CC)CCCC)c(C(=O)OCC(CC)CCCC)c1 (stereo unspecified),Tris(2-ethylhexyl) trimellitate,-9.477
[NH4+].n1n[nH]c([N-]c2nnn[nH]2)n1,Bis[1(2)H-tetrazol-5-yl]amine monoammonium salt,-11.01
CCCCCCCCCCOC(=O)c1ccccc1C(=O)OCCCCCCCCCC,Didecyl phthalate,-7.86
CCNC(=O)CSP(=S)(OC)OC,Ethoate-methyl,-5.034
Clc1ccc(C(Cl)Cl)cc1,4-Chlorobenzal chloride,-1.313
CC(C)COP(=O)(OCC(C)C)OCC(C)C,Triisobutyl phosphate,-2.694
Clc1cc(Cl)c2c(c1Cl)Oc1c(Cl)c(Cl)c(Cl)c(Cl)c1O2,"1,2,3,4,6,7,9-Heptachlorooxanthrene",-8.595
O=C(OOC(=O)c1ccc(Cl)cc1Cl)c1ccc(Cl)cc1Cl,"Bis(2,4-dichlorophenyl)peroxyanhydride",-4.171
FC(F)CNCc1ccc(Cl)nc1,"N-[(6-Chloro-3-pyridinyl)methyl]-2,2-difluoroethanamine",-3.637
Cl.NNC(N)=O,Semicarbazide hydrochloride,-5.648
CC(C)(C)C1CCC(OC(=O)Cl)CC1 (stereo unspecified),4-tert-Butylcyclohexyl chloroformate,0.176
ClCc1ccccc1CCl,"1,2-Bis(chloromethyl)benzene",-1.589
CCC(C)(C#N)/N=N/C(C)(C#N)CC (stereo partly drawn),"2,2'-Azobis(2-methylbutanenitrile)",-2.711
COP(=S)(OC)Oc1ccc(Sc2ccc(OP(=S)(OC)OC)cc2)cc1,Temephos,-7.155
CP(=O)(O)CCC(N)C(=O)[O-].[NH4+] (stereo unspecified),Glufosinate-ammonium,-6.633
N#Cc1ccccc1Cl,2-Chlorobenzonitrile,-1.347
Clc1cccc(-c2c(Cl)cccc2Cl)c1,"2,3',6-Trichlorobiphenyl",-3.315
O=C(O)CF,2-Fluoroacetic acid,0.353
C[C@H]1O[C@H](O[C@H]2[C@H](O)[C@@H](O)[C@@H](O)[C@H](O)[C@@H]2O)[C@@H](N)C[C@@H]1NC(=N)C(=O)O,Kasugamycin,-7
Clc1ccc(Cl)c(-c2c(Cl)c(Cl)c(Cl)c(Cl)c2Cl)c1Cl,"2,2',3,3',4,5,6,6'-Octachlorobiphenyl",-5.465
CCOP(=O)(C(=O)c1c(C)cc(C)cc1C)c1ccccc1 (stereo unspecified),"Ethyl phenyl(2,4,6-trimethylbenzoyl)phosphinate",-5.803
CC(C)(C)OOC(C)(C)CCC(C)(C)OOC(C)(C)C,"2,5-Dimethyl-2,5-di-(tert-butylperoxy)hexane",-4.882
O=C(O)CC(CP1(=O)Oc2ccccc2-c2ccccc21)C(=O)O (stereo unspecified),n/a,-3.648
O=C(Cl)CCCl,"Propanoyl chloride, 3-chloro-",0.529
COc1ccc(C)cc1N,2-Methoxy-5-methylaniline,-1.979
C[C@]12CCC3=C4CCC(=O)C=C4CC[C@H]3[C@@H]1CC[C@@H]2O,"9,10-Dehydro-19-nortestosterone",-10.87
Clc1ccc2ccc(Cl)cc2c1,"2,7-Dichloronaphthalene",-2.585
NP(N)(=O)Oc1ccccc1,"Phosphorodiamidic acid, phenyl ester",-4.98